Shown are actives, neighbours in structure and some others; about 2.8% of the full set was active somewhere.
E-selectin induc: induces E-selectin expression in human endothelial cells; P16581; HUVEC E-selectin immunofluorescence imaging; normalized: neutral wells 0, TNF-alpha wells 100; activation, % at 7.58 µM; 260,000 tested, 0.37% active; AID 686992;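 active = mean E-selectin-positive cell signal at least 10% of the positive control, reached in at least 60% of replicates, without over 20% cell loss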
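Material: HUVEC primary endothelial cells; Amount: 3,000 cells per well; Dosing: single concentration; Medium: EGM-2 growth medium on 0.1% gelatin-coated wells; Read-out basis: percent E-selectin-positive cells; Signal: immunofluorescence imaging; Control set: TNF-alpha, DMSO.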
UUG fidelity: modulators of yeast start codon fidelity, primary screen, whole organism, S. cerevisiae, single point, plate reader | AID 602363, 2012 | S. cerevisiae UUG-firefly luciferase reporter, luminescence/redox ratio | activity score, % at 18.7 µM | hit rate 0.13% among 350,000;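 active = replicate mean at a twofold rise or more, about +100% in these data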;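 also: firefly luciferase made from a UUG start codon reports start codon fidelity; reporter light over untreated wells divided by growth signal over untreated wells; some hits fall short of that in this replicate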
C2C12 statin: protects C2C12 myotubes from simvastatin toxicity; ATP luminescence, 48 h; scaled: DMSO 0, geranylgeraniol control 100; rescue of ATP level, % at 7.49 µM; 330,000 tested, 0.78% active;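 active = mean ATP rescue above about 67%, or every replicate alone reaching that limit, limit read from the data, passing the limit was not always enough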;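 note: myotubes were challenged with 10 µM simvastatin during compound exposure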
PglD DTNB: PglD (C. jejuni) enzyme inhibition; purified PglD enzyme, DTNB colorimetric CoA detection; inhibition, % at 12.5 µM; 360,000 tested, 0.098% active; in the data active = inhibition above about 16%, passing the limit was not always enough
PGC1a acetyl inh: lowers PGC1a acetylation signal in U2OS cells | 350,000 tested, 0.17% active | AlphaScreen anti-acetyl-lysine; with virally co-expressed GCN5 acetyltransferase | inhibition, % at 15.6 µM;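 active = every replicate shows inhibition of at least 40%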;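 note: 0% = neutral control wells and 100% = positive control wells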
esBAF inh: blocks esBAF chromatin remodeling in mouse ES cells; reporter increase, % at 12.5 µM; 350,000 tested, 2% active; Bmi1-luciferase knock-in reporter, 24 h; 100% = twice the neutral-well signal; in the data active = activation above about 40%;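 note: 0% = median of the plate's neutral control wells and 100% = double that signal; a rise in the Bmi1 reporter signal indicates esBAF inhibition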
* = called active by the depositor; x = no result given.

[1] Cc1ccc(-c2nn(-c3ccccc3)cc2/C=N/NC(=O)c2ccc(Br)o2)cc1
[2] O=C(O)/C=C/c1cn(-c2ccccc2)nc1-c1ccccc1
[3] O=C(O)/C=C/c1cn(-c2ccccc2)nc1-c1cc2ccccc2o1
[4] Cc1nnc(SCC(=O)N/N=C/c2cn(-c3ccccc3)nc2-c2ccccc2)n1-c1ccccc1
[5] O=C(N/N=C/c1cn(-c2ccccc2)nc1-c1ccccc1)c1ccco1
[6] O=C(C[C@@H]1CC[C@@H]2[C@H](COC[C@@H](O)CN2C(=O)c2ccc(F)cc2)O1)NCCCN1CCOCC1
[7] C[C@@H]1CN([C@@H](C)CO)C(=O)c2cccc(NS(=O)(=O)c3ccc(F)cc3)c2O[C@@H]1CN(C)CC1CC1
[8] C[C@@H]1CN([C@H](C)CO)C(=O)c2cc(C#CC3(O)CCCC3)cnc2O[C@H]1CN(C)C(=O)C1CC1

Compound	1	2	3	4	5	6	7	8
E-selectin induc	x	0	7	x	x	0	0	1
UUG fidelity	-8	-4	x	2	-6	7	3	x
C2C12 statin	-18	90*	x	-2	-12	-9	2	42
PglD DTNB	1	-5	x	8	1	3	0	x
PGC1a acetyl inh	-19	9	0	3	4	3	x	8
esBAF inh	64*	-9	x	63*	44*	-5	1	x

[9] O=C(Oc1ccc2c(c1)C(=O)c1ccccc1CO2)c1ccccc1
[10] COc1ccc(NC(=O)N(C)C[C@@H]2Oc3ccc(NC(=O)Nc4ccc(F)cc4)cc3C(=O)N([C@H](C)CO)C[C@@H]2C)cc1
[11] Cn1cnnc1SCC(=O)Nc1ccc2nc(SCc3ccccc3F)sc2c1
[12] O=C(Nc1nnc(-c2cccs2)s1)c1cccc(F)c1
[13] CC(C)(C)CC(=O)Nc1nnc(-c2cccs2)s1
[14] COc1ccc2c3c(n(C)c2c1)[C@@H](CO)N(C)CC31CCN(S(=O)(=O)c2cccs2)CC1
[15] COC(=O)C[C@H]1CC[C@@H]2[C@@H](COc3ccc(NC(=O)Nc4ccccc4C)cc3C(=O)N2C)O1
[16] COc1ccc2c3c(n(C)c2c1)[C@H](CO)N(C(=O)Nc1ccccc1F)CC31CCN(C(=O)c2ccccc2F)CC1

Compound	9	10	11	12	13	14	15	16
E-selectin induc	x	0	x	-1	0	0	0	2
UUG fidelity	-18	10	-20	-11	-8	x	4	x
C2C12 statin	107*	-17	13	4	15	x	0	x
PglD DTNB	5	5	-3	x	-7	x	1	x
PGC1a acetyl inh	1	-7	-12	x	11	13	-16	15
esBAF inh	16	-1	64*	60*	48*	x	1	x

[17] CS(=O)(=O)N(CCc1ccccc1)CC(=O)Nc1ccccc1
[18] CS(=O)(=O)N(CCc1ccccc1)CC(N)=O
[19] CS(=O)(=O)N(CCc1ccccc1)CC(=O)N1CCc2ccccc2C1
[20] CS(=O)(=O)N(CCc1ccccc1)CC(=O)N1CCCCC1
[21] CCCNC(=O)N1CC2(C1)[C@H](c1ccccc1)[C@@H](CO)N2Cc1ccccc1
[22] COc1ccc(CN2C[C@H](O)COC[C@H]3O[C@@H](CC(=O)N4CCc5ccccc5C4)CC[C@@H]32)cc1
[23] N#C[C@H]1[C@@H](c2ccccc2C2=CCCCC2)[C@@H](CO)N1C(=O)Cc1ccncc1
[24] Cc1cc(C(=O)Nc2ccc(S(=O)(=O)Nc3onc(C)c3C)cc2)c(C)o1

Compound	17	18	19	20	21	22	23	24
E-selectin induc	5	x	x	x	0	0	0	x
UUG fidelity	-5	-16	-1	-8	x	2	x	-13
C2C12 statin	4	102*	111*	x	x	25	x	7
PglD DTNB	6	7	1	2	x	0	x	0
PGC1a acetyl inh	-10	14	-1	x	0	6	-5	14
esBAF inh	4	-8	3	x	x	5	x	-14

[25] Cc1ccc2oc(C(=O)Nc3ccc(S(=O)(=O)Nc4onc(C)c4C)cc3)c(C)c2c1
[26] CC=Cc1ccc2n(c1=O)C[C@@H]1[C@@H](CO)[C@H](C(=O)OC)N(CCc3ccccc3)[C@H]21 (mixture of isomers)
[27] O=C(Cc1ccccn1)NCC[C@H]1CC[C@@H](NC(=O)Nc2ccc(C(F)(F)F)cc2)[C@@H](CO)O1
[28] O=C(Cc1ccccn1)NCC[C@H]1CC[C@@H](NC(=O)Nc2ccc(F)cc2)[C@@H](CO)O1
[29] O=C(Cc1ccccn1)NCC[C@@H]1CC[C@@H](NC(=O)Nc2ccc(F)cc2)[C@@H](CO)O1
[30] O=C(Cc1ccccn1)NCC[C@H]1CC[C@H](NC(=O)Nc2ccc(C(F)(F)F)cc2)[C@H](CO)O1
[31] O=S(=O)(c1ccc(-c2ccccc2)cc1)N1[C@@H]2CNC[C@H]1C2c1ccc(-c2cccnc2)cc1 (stereo partly drawn)
[32] CN(C)S(=O)(=O)c1cccc(NC(=O)C2Cc3ccccc3CN2C(=O)c2ccco2)c1 (stereo not drawn)

Compound	25	26	27	28	29	30	31	32
E-selectin induc	0	0	0	-2	-2	0	0	x
UUG fidelity	10	x	3	-9	0	1	x	0
C2C12 statin	3	20	-3	-7	2	-1	x	1
PglD DTNB	-2	0	0	2	7	3	x	-3
PGC1a acetyl inh	x	x	102*	1	0	48*	-1	-8
esBAF inh	59*	3	2	-3	-7	6	x	44*

[33] CCOc1cc(C(=O)NCCOC)ccc1OC
[34] C(=C\c1ccccc1)/C=N/Nc1nc2ccccc2s1
[35] Cc1nc2ccc(NC(=O)NC(=O)c3c(Cl)cccc3Cl)cc2o1
[36] CCNC(=O)[C@H]1[C@H](CO)[C@H]2Cn3c(ccc(-c4ccc(OC)cc4)c3=O)[C@@H]1N2CC1CC1
[37] Cc1noc(C)c1NC(=O)N(C)C[C@H]1Oc2ccc(NC(=O)Cc3ccccc3)cc2CC(=O)N([C@@H](C)CO)C[C@H]1C
[38] O=C(C1CC1)N1CCN(c2nc3ccccc3s2)CC1
[39] COc1ccc2[nH]c(=O)c(-c3nnn(-c4ccc(F)cc4)n3)cc2c1
[40] COc1ccc2[nH]c(=O)c(-c3nnn(-c4ccccc4)n3)cc2c1

Compound	33	34	35	36	37	38	39	40
E-selectin induc	x	x	64*	0	0	x	0	-1
UUG fidelity	-4	-8	x	x	-8	-18	-6	-8
C2C12 statin	120*	4	x	1	-6	6	12	-1
PglD DTNB	3	-7	x	5	-2	-4	1	3
PGC1a acetyl inh	1	0	x	x	-1	-18	x	-9
esBAF inh	-6	66*	x	3	-1	46*	1	58*

Part of the list above, reduced to PglD DTNB:
entry	SMILES	PglD DTNB
37	Cc1noc(C)c1NC(=O)N(C)C[C@H]1Oc2ccc(NC(=O)Cc3ccccc3)cc2CC(=O)N([C@@H](C)CO)C[C@H]1C	-2
38	O=C(C1CC1)N1CCN(c2nc3ccccc3s2)CC1	-4
39	COc1ccc2[nH]c(=O)c(-c3nnn(-c4ccc(F)cc4)n3)cc2c1	1
40	COc1ccc2[nH]c(=O)c(-c3nnn(-c4ccccc4)n3)cc2c1	3

Remaining list, next part.
[41] COc1ccc(COn2c(=O)c(C)[n+]([O-])c3ccccc32)cc1OC
[42] Cc1c(=O)n(OCc2ccccc2)c2ccccc2[n+]1[O-]
[43] COc1cccc(C(=O)Nc2c[nH]c(=O)[nH]c2=O)c1
[44] O=C(Nc1sc2c(c1C(=O)O)CCCCC2)c1cccs1
[45] Cc1ccc(-c2csc(NC(=O)c3ccc(F)cc3)c2C(=O)O)cc1
[46] CCOC(=O)c1c(NC(=O)CSc2nnc(C)s2)sc2c1CCCCC2
[47] O=C(/C=C/c1cccs1)Nc1sc2c(c1C(=O)O)CCCC2
[48] CCOC(=O)c1c(NC(=O)CSc2nnc(C)s2)sc2c1CCC(C)C2 (stereo not drawn)

Compound	41	42	43	44	45	46	47	48
E-selectin induc	x	x	x	x	0	x	x	x
UUG fidelity	-1	-17	-13	x	-1	-13	-1	-5
C2C12 statin	106*	2	3	x	-9	x	-17	98*
PglD DTNB	6	1	-2	x	-7	-2	0	-6
PGC1a acetyl inh	-7	-12	-11	-2	x	-37	x	-27
esBAF inh	3	-3	-6	x	59*	x	62*	-5
